From article PMC9456135

Tested on: CCn1c(=NN=c2sc3cc(S(=O)(=O)O)ccc3n2CC)sc2cc(S(=O)(=O)O)ccc21
Assay: purified protein
Conditions: no added Fe2+, optimum pH 1.5, 50 °C, glycine-HCl

Melac13220 (Methylorubrum extorquens)
Km: 76.5 µM
kcat: 14.6 s⁻¹
kcat/Km: 191000 M⁻¹ s⁻¹
